Reference: paper PMC4229301, “A Polymeric Prodrug of 5-Fluorouracil-1-Acetic Acid Using a Multi-Hydroxyl Polyethylene Glycol Derivative as the Drug Carrier” (PLoS ONE, 2014)

Columns and labels:
[1] = In vivo distribution in H22 tumor-bearing mice
[2] = Pharmacokinetics study after i.v. injection in rats
[3] = 20 mg/kg 5-FA or 189 mg/kg 5-FA-PAE

multi-hydroxyl polyethylene glycol-5-fluorouracil-1-acetic acid [5-FA-PAE]
detection in all organs and tumor ([1]; 72 h after injection): detectable
concentration in tumor ([1]; i.v. 20 mg/kg 5-FA or equivalent 5-FA-PAE, 15 min after injection (maximum)): 4.22 ± 2.3 µg/g
concentration in spleen ([1]; i.v. 189 mg/kg 5-FA-PAE, 24 h (peak), as 5-FA): 21.68 ± 10.83 µg/g
unreleased 5-FA-PAE at 24 h as share of the concentration at 5 min [2]: about 1.1%
V (apparent volume of distribution) [2, 3]: 1.172 ± 0.358 mL/g
VRT 0-t [2, 3]: 190.2±19.7 h^2
VRT 0-∞ [2, 3]: 335.8±79.4 h^2
